Data from patent US20070202163A1 (priority 2005, published 2007).

Conditions: rabbits; 30 mg sublingual tablet; mean ± SD
Protocol: Sublingual tablets or IM doses were administered using a Randomized Crossover study design over 5-consecutive weeks.
Animals were evaluated for viability once-daily throughout the study. Cageside clinical observations were performed twice-daily from the initiation of dosing until the end of treatment. Body weights were obtained upon receipt, on Study Day 1 and weekly thereafter.
Blood samples (approximately 1 mL/time point) were obtained from an indwelling arterial catheter placed approximately 30-minutes prior to initiation of sample collection. […]
Immediately after collection, the tube was inverted several times to disperse the anticoagulant and then placed on ice until centrifugation. […] (±10° C.) until analyzed. […]
A freshly prepared standard curve was analyzed along with samples on each day of analysis. […] Calibrator concentrations were 0.5, 1, 2, 4, 8, 12, 16 and 20 ng/mL as determined in the validation study. […]
Elimination half-life (T½), maximum concentration (Cmax), time of maximum concentration (Tmax), area under the plasma concentration-time curve from time 0 through the final timepoint (AUC0-t), and area under the plasma concentration-time curve from time 0 extrapolated to infinity (AUC0-∞) were calculated for this study. […] The elimination rate constant, lambda z (λz), was determined by WinNonlin using the best fit method.

Structure (SMILES): CNC[C@H](O)c1ccc(O)c(O)c1 [Epinephrine]
- Tmax2: 40.8 ± 29.4 min
